In paper PMC9036676 (RSC Advances, 2021):

Target: PD-1/PD-L1 (Homo sapiens, UniProt Q9NZQ7)
Experiment: PD-1/PD-L1 TR-FRET assay
Format: binding

IC50: 46.2 nM
SMILES: CCCC[C@H]1C(=O)N(C)[C@@H](CCCC)C(=O)N[C@@H](CCCNC(=N)N)C(=O)N[C@H](C(=O)NCC(N)=O)CSCC(=O)N[C@@H](Cc2ccccc2)C(=O)N(C)[C@@H](C)C(=O)N[C@@H](CC(N)=O)C(=O)N2CCC[C@H]2C(=O)N[C@@H](Cc2cnc[nH]2)C(=O)N[C@@H](CC(C)C)C(=O)N[C@@H](CO)C(=O)N[C@@H](Cc2c[nH]c3ccccc23)C(=O)N[C@@H](CO)C(=O)N[C@@H](Cc2c[nH]c3ccccc23)C(=O)N1C [Compound 1]
